In the test the target is GST-SOCS2/BC trimeric complex (GST-human SOCS2 residues 32-198 with Elongin B and Elongin C) (human, UniProt O14508 32-198; Q15370 1-118; Q15369 17-112). As to the kind of experiment: SPR. A general note: Surface plasmon resonance follows binding to a sensor surface in real time, without labels.

This passage reports IC50 results from paper PMC9742514 (2022).

PVPDYTSIHIV (phosphotyrosine at 595) [GHR pY595 competitor peptide (phosphopeptide derived from growth hormone receptor Tyr595)] came in with a half-inhibitory concentration (IC50) of 1.1 µM.

Broadly, the IC50 is the concentration at which inhibition is half-maximal. Low values mean greater potency in that assay, high ones weaker potency in that assay.
